# From publication PMC4469479
# Test system: NCCc1ccc(O)c(O)c1
# Experiment: cells, lysate or membranes
# Settings: pH 7.4
substance,measurement,value
dDATmfc (Drosophila melanogaster; DEL162-202/DEL602-606/INS607VPRG/L415A/V74A),Km,8.2 ± 2.3 µM
